Here are results for 2 compounds from PubChem BioAssay AID504558 (Broad Institute, 2011).

This is a selection; strong and weak results do not stand in their true shares. Activity calls are given as the source filed them. No stated cut-off is given here; in the data, active means inhibition above about 41%; inconclusive means no clear call, values can overlap the other calls; inactive means below that.

The test in a line: blockers of LMP1-induced NF-kB reporter signal – cell-based, luminescence, single point, primary screen (AID 504558).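 Further: 0% = neutral control wells and 100% = reference inhibitor control.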 The note with it: LMP1-induced NF-kappaB luciferase reporter cells, at 12.5 µM, hits give high values.
The term inhibition denotes the change of the read-out against control, counted positive when it falls. For the compound `CCC(=O)N(c1ccccc1)C1(COC)CCN(CCc2cccs2)CC1`, the inhibition is inactive: -21.8%.

Take `CCC(=O)N(c1ccccc1)C1(COC)CCN(CCn2nnn(CC)c2=O)CC1`: the inhibition is inactive: 7.75%.
